From publication PMC8269116 (Journal of psychopharmacology (Oxford, England), 2019)

The chains behind the UniProt entries cited, without tags or fusion partners.
UniProt Q01959, whole entry: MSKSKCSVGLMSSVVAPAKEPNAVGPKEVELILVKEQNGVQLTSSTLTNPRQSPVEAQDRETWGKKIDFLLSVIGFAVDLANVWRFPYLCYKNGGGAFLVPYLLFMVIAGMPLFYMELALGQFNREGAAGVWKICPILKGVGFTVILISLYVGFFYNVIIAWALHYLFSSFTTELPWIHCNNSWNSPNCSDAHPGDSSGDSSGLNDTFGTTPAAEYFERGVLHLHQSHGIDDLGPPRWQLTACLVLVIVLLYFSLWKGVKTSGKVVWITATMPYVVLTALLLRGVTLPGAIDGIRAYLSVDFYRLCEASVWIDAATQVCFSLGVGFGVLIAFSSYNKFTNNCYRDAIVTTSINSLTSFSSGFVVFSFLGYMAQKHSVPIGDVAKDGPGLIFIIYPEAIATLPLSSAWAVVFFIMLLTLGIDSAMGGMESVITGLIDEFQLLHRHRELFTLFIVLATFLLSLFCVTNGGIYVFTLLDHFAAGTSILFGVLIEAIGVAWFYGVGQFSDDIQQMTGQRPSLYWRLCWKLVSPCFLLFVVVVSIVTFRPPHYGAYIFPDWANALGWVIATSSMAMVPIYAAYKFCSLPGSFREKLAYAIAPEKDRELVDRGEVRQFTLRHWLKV

What was measured:
[1] = system: 5-HT2A receptor; conditions: compared to MDMA; ref Rickli et al., 2015b; cited from earlier work
[2] = target: DAT (Homo sapiens, UniProt Q01959); assay: [3H]dopamine uptake inhibition in HEK 293 cells overexpressing human DAT; assay type: cell-based; conditions: 1/DAT IC50 : 1/SERT IC50; mean and 95% confidence interval

## CC(N)Cc1ccc2c(c1)OCO2 (centres unmarked) [MDA, 3,4-methylenedioxyamphetamine, reference compound]
[1]
  5-HT2A receptor activation potency, fold more potent than MDMA: about 10 fold
[2]
  DAT/SERT ratio: 0.25 (0.17–0.38)
